Assays:
[1] = test system: C. albicans; assay: Disruption biofilm assay, fungal; type: cell-based, Candida albicans; conditions: 1% amino acid (unless specifically noted), p≤0.001
Protocol: (§1) Two types of biofilm assays were performed: a sustained inhibition assay and a disruption assay. The sustained inhibition assay assesses the compound's ability to prevent biofilm development throughout all stages of biofilm formation, while the disruption assay assesses the compound's ability to break up an existing mature biofilm. These assays are described in detail in the following article: Lohse, M. B., Gulati, M., Valle Arevalo, A., Fishburn, A., Johnson, A. D., and Nobile, C. […] Antimicrobial Agents and Chemotherapy 61: e02749-16.
(§2) All bacterial biofilm solutions were prepared in Trypic Soy Broth (TSB), supplemented with 1% glucose (henceforth referred to as TSB-G). All subsequent procedures were performed in a manner that maintained sterility. A solution of each amino acid to be tested was prepared in weight to volume concentrations ranging from 0.1-5.0%. Amino acids were also tested in combinations. Compound solutions were homogenized with gentle agitation in the dark (4° C., 24 hours) before use.
(§3) Fungal strains were streaked on Yeast Peptone Dextrose (YPD) agar plates and incubated at 30° C. for 48 hours. […] Media was carefully aspirated and the biofilm was measured by optical density at 600 nm. […] Media was carefully aspirated and the biofilm was measured by optical density at 600 nm.

[2] = test system: C. albicans; assay: Sustained inhibition biofilm assay, fungal; type: cell-based, Candida albicans; conditions: 1% amino acid (unless specifically noted), p≤0.001
Protocol: as §1, §2, §3

Compound: N[C@@H](CCS)C(=O)O [Homocysteine (0.4%), L-homocysteine]
- Reduce F Biofilm [1]: ● (a single dot [ie. •] signifies minor effect (from about 10 to about 30% change))
- Reduce F Biofilm [2]: ● (a single dot [ie. •] signifies minor effect (from about 10 to about 30% change))

From US11779559B2, “Compositions for treating fungal and bacterial biofilms and methods of using the same” (priority 2017, dated 2023)
